# Measured values: article PMC9569420 (Communications Biology, 2022)
# By UniProt entry, the sequences of proteins in these tests, tags left out. Where a name states a change or a piece, a line headed by the entry shows the natural chain unless it says otherwise. Residues count along the entry.
# UniProt P49759: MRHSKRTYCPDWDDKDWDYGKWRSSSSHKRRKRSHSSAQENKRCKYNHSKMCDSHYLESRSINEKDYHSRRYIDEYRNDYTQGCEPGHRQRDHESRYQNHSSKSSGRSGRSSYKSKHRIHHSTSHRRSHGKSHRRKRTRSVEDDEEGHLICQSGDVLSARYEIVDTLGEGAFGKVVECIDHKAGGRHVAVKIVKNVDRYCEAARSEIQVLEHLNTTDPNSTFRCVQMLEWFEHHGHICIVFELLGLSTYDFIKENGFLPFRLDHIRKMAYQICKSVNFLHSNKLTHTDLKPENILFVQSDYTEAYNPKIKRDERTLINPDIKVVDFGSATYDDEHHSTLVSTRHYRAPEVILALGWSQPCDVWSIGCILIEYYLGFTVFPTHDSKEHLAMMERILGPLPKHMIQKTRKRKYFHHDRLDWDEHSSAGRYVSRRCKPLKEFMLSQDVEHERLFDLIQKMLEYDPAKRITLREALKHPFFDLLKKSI
# UniProt Q13464: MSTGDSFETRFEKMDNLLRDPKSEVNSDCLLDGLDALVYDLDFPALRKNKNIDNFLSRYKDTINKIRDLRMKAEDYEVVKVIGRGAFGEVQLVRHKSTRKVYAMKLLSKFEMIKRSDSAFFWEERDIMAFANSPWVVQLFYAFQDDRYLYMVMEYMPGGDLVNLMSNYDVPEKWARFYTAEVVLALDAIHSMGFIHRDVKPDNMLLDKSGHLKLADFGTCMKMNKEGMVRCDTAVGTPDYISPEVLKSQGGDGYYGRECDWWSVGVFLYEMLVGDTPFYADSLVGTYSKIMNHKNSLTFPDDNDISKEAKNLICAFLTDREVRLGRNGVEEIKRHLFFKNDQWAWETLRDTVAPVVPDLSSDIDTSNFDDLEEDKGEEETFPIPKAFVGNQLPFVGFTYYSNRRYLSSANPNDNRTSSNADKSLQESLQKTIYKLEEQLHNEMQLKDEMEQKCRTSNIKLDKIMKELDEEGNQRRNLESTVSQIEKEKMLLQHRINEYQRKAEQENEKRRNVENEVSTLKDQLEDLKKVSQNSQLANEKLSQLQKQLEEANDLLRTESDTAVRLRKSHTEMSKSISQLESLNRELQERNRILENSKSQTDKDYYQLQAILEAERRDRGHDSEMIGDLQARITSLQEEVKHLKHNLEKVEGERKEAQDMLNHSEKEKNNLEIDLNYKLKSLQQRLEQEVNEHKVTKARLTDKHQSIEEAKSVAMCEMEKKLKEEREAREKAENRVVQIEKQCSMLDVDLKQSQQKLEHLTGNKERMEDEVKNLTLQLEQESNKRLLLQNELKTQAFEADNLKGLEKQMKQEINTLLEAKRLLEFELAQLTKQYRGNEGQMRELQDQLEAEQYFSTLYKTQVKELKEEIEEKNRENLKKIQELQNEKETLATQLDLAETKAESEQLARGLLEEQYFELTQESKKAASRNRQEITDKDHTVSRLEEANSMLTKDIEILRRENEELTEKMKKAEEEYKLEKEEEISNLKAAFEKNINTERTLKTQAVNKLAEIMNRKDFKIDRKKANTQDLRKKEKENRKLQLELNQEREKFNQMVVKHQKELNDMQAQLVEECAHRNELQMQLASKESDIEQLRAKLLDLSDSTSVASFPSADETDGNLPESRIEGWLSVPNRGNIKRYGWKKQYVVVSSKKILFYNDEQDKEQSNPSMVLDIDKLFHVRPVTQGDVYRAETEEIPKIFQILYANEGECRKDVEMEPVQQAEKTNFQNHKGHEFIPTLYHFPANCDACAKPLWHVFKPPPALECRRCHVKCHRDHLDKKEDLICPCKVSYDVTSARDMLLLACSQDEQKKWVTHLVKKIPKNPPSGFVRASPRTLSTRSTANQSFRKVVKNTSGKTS
# UniProt Q9Y6M4: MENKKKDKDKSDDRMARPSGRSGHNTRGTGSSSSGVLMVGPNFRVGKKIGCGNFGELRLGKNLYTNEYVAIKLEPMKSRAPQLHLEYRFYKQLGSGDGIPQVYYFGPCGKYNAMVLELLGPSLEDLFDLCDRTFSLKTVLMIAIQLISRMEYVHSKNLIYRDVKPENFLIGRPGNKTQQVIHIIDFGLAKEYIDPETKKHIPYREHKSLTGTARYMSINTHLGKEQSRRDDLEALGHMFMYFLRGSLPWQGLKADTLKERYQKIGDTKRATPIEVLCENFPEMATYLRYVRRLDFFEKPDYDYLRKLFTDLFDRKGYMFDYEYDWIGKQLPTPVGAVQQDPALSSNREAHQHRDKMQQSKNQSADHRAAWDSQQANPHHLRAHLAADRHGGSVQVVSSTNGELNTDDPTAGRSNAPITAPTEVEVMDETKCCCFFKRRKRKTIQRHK
# UniProt Q16644, whole entry: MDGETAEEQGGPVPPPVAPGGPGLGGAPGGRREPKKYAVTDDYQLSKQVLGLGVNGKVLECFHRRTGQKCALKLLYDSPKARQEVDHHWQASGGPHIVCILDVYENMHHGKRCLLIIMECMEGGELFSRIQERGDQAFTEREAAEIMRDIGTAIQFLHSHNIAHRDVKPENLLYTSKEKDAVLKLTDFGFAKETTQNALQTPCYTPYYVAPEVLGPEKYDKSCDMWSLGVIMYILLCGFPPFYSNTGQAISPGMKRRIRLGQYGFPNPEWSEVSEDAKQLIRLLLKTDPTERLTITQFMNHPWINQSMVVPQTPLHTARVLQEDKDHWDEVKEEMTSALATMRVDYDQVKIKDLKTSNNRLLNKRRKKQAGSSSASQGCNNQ
# UniProt P14616, 27-1297: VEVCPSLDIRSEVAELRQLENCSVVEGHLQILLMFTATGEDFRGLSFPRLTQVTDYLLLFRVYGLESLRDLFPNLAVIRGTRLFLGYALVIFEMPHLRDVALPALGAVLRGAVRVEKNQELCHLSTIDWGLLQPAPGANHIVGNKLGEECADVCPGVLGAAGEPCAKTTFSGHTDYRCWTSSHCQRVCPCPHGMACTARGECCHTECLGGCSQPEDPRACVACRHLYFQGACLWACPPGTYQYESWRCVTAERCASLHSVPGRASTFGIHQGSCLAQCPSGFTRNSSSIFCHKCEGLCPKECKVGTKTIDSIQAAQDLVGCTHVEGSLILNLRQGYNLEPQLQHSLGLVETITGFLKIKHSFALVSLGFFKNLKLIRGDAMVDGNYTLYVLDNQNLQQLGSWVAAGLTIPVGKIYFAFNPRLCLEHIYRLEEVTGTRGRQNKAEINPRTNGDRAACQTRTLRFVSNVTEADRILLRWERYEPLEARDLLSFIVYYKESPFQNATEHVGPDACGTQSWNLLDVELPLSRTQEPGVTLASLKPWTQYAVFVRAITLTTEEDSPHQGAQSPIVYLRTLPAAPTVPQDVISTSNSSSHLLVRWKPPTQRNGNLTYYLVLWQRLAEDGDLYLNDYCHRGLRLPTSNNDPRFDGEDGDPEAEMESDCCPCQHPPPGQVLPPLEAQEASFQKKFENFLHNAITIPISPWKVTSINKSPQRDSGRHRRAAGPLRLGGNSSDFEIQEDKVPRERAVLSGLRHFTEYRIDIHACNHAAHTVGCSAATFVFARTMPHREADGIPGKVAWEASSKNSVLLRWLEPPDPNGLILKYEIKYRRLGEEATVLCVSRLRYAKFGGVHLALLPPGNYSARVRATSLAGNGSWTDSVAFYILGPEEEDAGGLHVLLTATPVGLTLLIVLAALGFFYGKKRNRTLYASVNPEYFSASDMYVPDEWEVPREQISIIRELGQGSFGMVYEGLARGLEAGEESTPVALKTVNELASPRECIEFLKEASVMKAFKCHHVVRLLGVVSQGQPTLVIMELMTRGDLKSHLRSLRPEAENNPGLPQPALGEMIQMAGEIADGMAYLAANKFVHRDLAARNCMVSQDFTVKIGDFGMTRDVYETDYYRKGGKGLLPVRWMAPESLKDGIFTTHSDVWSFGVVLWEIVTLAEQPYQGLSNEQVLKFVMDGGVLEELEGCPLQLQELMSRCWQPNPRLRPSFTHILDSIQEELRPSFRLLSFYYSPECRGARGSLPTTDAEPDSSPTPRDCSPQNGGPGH
# UniProt Q6XUX3: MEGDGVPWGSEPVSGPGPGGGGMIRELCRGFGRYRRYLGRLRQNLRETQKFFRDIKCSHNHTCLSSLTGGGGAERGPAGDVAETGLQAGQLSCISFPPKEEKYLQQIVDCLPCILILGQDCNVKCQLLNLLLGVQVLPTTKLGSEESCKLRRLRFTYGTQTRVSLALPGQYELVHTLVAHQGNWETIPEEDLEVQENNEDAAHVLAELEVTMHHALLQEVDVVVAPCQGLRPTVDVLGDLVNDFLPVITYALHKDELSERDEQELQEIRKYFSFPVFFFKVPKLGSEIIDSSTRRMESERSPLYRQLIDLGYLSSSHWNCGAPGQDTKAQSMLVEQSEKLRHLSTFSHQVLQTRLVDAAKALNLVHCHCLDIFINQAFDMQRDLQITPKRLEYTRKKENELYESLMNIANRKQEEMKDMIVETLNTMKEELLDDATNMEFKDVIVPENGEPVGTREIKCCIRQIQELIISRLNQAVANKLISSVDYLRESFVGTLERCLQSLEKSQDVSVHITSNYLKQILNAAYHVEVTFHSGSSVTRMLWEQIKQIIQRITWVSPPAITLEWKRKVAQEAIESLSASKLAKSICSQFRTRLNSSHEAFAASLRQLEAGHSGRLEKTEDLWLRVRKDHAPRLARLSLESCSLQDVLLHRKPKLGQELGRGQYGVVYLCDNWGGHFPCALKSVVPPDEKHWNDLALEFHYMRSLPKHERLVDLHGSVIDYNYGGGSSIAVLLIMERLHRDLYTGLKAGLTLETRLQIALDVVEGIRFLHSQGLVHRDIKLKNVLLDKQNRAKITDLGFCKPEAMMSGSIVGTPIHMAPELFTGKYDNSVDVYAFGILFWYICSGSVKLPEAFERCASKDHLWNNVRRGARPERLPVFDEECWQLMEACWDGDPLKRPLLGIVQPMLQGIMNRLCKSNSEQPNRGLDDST
# UniProt Q8NE63: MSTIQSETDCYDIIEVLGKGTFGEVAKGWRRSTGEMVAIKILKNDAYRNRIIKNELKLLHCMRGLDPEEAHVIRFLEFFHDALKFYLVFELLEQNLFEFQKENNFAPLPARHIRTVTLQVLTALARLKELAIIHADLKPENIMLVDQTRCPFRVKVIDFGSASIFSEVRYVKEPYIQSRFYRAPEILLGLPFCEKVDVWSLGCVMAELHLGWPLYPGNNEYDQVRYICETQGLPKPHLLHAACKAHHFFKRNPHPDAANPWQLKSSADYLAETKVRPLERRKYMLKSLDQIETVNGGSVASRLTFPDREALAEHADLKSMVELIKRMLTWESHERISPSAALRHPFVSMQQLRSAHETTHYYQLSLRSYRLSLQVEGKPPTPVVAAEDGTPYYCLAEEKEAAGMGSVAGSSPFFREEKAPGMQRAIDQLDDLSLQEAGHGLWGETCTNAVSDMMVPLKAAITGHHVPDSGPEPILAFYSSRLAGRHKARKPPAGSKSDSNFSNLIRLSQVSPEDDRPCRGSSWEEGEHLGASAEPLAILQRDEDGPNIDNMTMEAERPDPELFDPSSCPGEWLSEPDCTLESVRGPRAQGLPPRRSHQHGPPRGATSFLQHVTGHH
# UniProt Q13131: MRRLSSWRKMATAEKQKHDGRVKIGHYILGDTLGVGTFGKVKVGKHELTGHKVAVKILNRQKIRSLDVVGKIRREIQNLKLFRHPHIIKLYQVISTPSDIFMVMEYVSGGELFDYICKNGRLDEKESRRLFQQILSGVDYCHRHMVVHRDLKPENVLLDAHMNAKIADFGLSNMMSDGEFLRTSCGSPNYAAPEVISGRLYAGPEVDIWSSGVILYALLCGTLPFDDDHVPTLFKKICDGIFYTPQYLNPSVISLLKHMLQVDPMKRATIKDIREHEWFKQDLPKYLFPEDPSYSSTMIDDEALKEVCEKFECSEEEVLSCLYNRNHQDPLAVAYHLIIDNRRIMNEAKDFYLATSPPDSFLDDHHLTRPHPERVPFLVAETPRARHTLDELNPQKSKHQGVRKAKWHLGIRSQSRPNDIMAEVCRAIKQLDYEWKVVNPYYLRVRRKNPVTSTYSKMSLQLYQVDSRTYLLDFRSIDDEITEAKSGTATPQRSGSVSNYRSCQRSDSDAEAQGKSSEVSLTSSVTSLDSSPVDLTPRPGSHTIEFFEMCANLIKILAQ
# UniProt Q13043: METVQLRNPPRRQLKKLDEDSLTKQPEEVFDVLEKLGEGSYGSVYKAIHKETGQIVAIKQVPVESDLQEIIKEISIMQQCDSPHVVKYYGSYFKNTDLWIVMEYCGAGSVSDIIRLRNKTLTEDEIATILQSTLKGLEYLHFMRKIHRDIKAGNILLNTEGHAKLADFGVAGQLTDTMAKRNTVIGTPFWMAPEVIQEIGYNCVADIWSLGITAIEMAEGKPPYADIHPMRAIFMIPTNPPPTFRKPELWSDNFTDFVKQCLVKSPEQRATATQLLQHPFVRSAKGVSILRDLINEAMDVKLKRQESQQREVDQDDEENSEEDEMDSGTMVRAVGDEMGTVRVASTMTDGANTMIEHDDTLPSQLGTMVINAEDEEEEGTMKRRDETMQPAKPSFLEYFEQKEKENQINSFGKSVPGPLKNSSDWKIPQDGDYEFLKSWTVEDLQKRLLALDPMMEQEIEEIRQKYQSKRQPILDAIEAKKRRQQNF
# Key:
# KSR2 = target: T1, KSR2 (Homo sapiens, UniProt Q6VAB6); type: biochemical; details: 10µM
# T1 construct: purchased Reaction Biology Corporation
# PDK1/PDPK1 = target: T2, PDK1/PDPK1 (Homo sapiens, UniProt O15530); type: biochemical; details: 10µM
# T2 construct: purchased Reaction Biology Corporation
# PASK = target: T3, PASK (Homo sapiens, UniProt Q96RG2); test: HotSpot kinase assay; type: biochemical; details: 10µM
# T3 construct: purchased Reaction Biology Corporation
# TESK2 = target: T4, TESK2 (Homo sapiens, UniProt Q96S53); test: HotSpot kinase assay; type: biochemical; details: 10µM
# T4 construct: purchased Reaction Biology Corporation
# CLK1 = target: T5, CLK1 (Homo sapiens, UniProt P49759); test: HotSpot kinase assay; type: biochemical; details: 10µM
# T5 construct: purchased Reaction Biology Corporation
# SIK2 = target: T6, SIK2 (Homo sapiens, UniProt Q9H0K1); test: HotSpot kinase assay; type: biochemical; details: 10µM
# T6 construct: purchased Reaction Biology Corporation
# TIE2/TEK = target: T7, TIE2/TEK (Homo sapiens, UniProt Q02763); test: HotSpot kinase assay; type: biochemical; details: 10µM
# T7 construct: purchased Reaction Biology Corporation
# ROCK1 = target: T8, ROCK1 (Homo sapiens, UniProt Q13464); test: HotSpot kinase assay; type: biochemical; details: 10µM
# T8 construct: purchased Reaction Biology Corporation
# CAMK2b = target: T9, CAMK2b (Homo sapiens, UniProt Q13554); test: HotSpot kinase assay; type: biochemical; details: 10µM
# T9 construct: purchased Reaction Biology Corporation
# RIPK2 = target: T10, RIPK2 (Homo sapiens, UniProt O43353); test: HotSpot kinase assay; type: biochemical; details: 10µM
# T10 construct: purchased Reaction Biology Corporation
# RAF1 = target: T11, RAF1 (Homo sapiens, UniProt P04049); test: HotSpot kinase assay; type: biochemical; details: 10µM
# T11 construct: purchased Reaction Biology Corporation
# NIM1 = target: T12, NIM1 (Homo sapiens, UniProt Q8IY84); test: HotSpot kinase assay; type: biochemical; details: 10µM
# T12 construct: purchased Reaction Biology Corporation
# COT1/MAP3K8 = target: T13, COT1/MAP3K8 (Homo sapiens, UniProt P41279); test: HotSpot kinase assay; type: biochemical; details: 10µM
# T13 construct: purchased Reaction Biology Corporation
# PDK4/PDHK4 = target: T14, PDK4/PDHK4 (Homo sapiens, UniProt Q16654); test: HotSpot kinase assay; type: biochemical; details: 10µM
# T14 construct: purchased Reaction Biology Corporation
# CK1g3 = target: T15, CK1g3 (Homo sapiens, UniProt Q9Y6M4); test: HotSpot kinase assay; type: biochemical; details: 10µM
# T15 construct: purchased Reaction Biology Corporation
# ERK2/MAPK1 = target: T16, ERK2/MAPK1 (Homo sapiens, UniProt P28482); test: HotSpot kinase assay; type: biochemical; details: 10µM
# T16 construct: purchased Reaction Biology Corporation
# EPHA2 = target: T17, EPHA2 (Homo sapiens, UniProt P29317); test: HotSpot kinase assay; type: biochemical; details: 10µM
# T17 construct: purchased Reaction Biology Corporation
# PIM3 = target: T18, PIM3 (Homo sapiens, UniProt Q86V86); test: HotSpot kinase assay; type: biochemical; details: 10µM
# T18 construct: purchased Reaction Biology Corporation
# AURORA C = target: T19, AURORA C (Homo sapiens, UniProt Q9UQB9); test: HotSpot kinase assay; type: biochemical; details: 10µM
# T19 construct: purchased Reaction Biology Corporation
# MAPKAPK3 = target: T20, MAPKAPK3 (Homo sapiens, UniProt Q16644); test: HotSpot kinase assay; type: biochemical; details: 10µM
# T20 construct: purchased Reaction Biology Corporation
# ERK5/MAPK7 = target: T21, ERK5/MAPK7 (Homo sapiens, UniProt Q13164); test: HotSpot kinase assay; type: biochemical; details: 10µM
# T21 construct: purchased Reaction Biology Corporation
# PKCmu/PRKD1 = target: T22, PKCmu/PRKD1 (Homo sapiens, UniProt Q15139); test: HotSpot kinase assay; type: biochemical; details: 10µM
# T22 construct: purchased Reaction Biology Corporation
# IRR/INSRR = target: T23, IRR/INSRR (Homo sapiens, UniProt P14616); test: HotSpot kinase assay; type: biochemical; details: 10µM
# T23 construct: purchased Reaction Biology Corporation
# HSV-2(G) = test: HSV plaque assay, primary vaginal cells; type: cell-based
# GRK1 = target: T24, GRK1 (Homo sapiens, UniProt Q15835); test: HotSpot kinase assay; type: biochemical; details: 10µM
# T24 construct: purchased Reaction Biology Corporation
# NLK = target: T25, NLK (Homo sapiens, UniProt Q9UBE8); test: HotSpot kinase assay; type: biochemical; details: 10µM
# T25 construct: purchased Reaction Biology Corporation
# CDK2/cyclin A = target: T26, CDK2/cyclin A (Homo sapiens, UniProt P24941); test: HotSpot kinase assay; type: biochemical; details: 10µM
# T26 construct: purchased Reaction Biology Corporation
# RIPK5 = target: T27, RIPK5 (Homo sapiens, UniProt Q6XUX3); test: HotSpot kinase assay; type: biochemical; details: 10µM
# T27 construct: purchased Reaction Biology Corporation
# STK22D/TSSK1 = target: T28, STK22D/TSSK1 (Homo sapiens, UniProt Q9BXA7); test: HotSpot kinase assay; type: biochemical; details: 10µM
# T28 construct: purchased Reaction Biology Corporation
# ALK = target: T29, ALK (Homo sapiens, UniProt Q9UM73); test: HotSpot kinase assay; type: biochemical; details: 10µM
# T29 construct: purchased Reaction Biology Corporation
# HIPK4 = target: T30, HIPK4 (Homo sapiens, UniProt Q8NE63); test: HotSpot kinase assay; type: biochemical; details: 10µM
# T30 construct: purchased Reaction Biology Corporation
# ARAF = target: T31, ARAF (Homo sapiens, UniProt P10398); test: HotSpot kinase assay; type: biochemical; details: 10µM
# T31 construct: purchased Reaction Biology Corporation
# EPHB2 = target: T32, EPHB2 (Homo sapiens, UniProt P29323); test: HotSpot kinase assay; type: biochemical; details: 10µM
# T32 construct: purchased Reaction Biology Corporation
# ALK2/ACVR1 = target: T33, ALK2/ACVR1 (Homo sapiens, UniProt Q04771); test: HotSpot kinase assay; type: biochemical; details: 10µM
# T33 construct: purchased Reaction Biology Corporation
# CLK2 = target: T34, CLK2 (Homo sapiens, UniProt P49760); test: HotSpot kinase assay; type: biochemical; details: 10µM
# T34 construct: purchased Reaction Biology Corporation
# AMPK (A1/B2/G3) = target: T35, AMPK (A1/B2/G3) (Homo sapiens, UniProt Q13131); test: HotSpot kinase assay; type: biochemical; details: 10µM
# T35 construct: purchased Reaction Biology Corporation
# FGFR4 = target: T36, FGFR4 (Homo sapiens, UniProt P22455); test: HotSpot kinase assay; type: biochemical; details: 10µM
# T36 construct: purchased Reaction Biology Corporation
# HaCat cells = test: viability of confluent cells; type: cell-based, human; details: 10 μM, 24 h, replicates (Fig 1c source data)
# AKT1 = target: T37, AKT1 (Homo sapiens, UniProt P31749); type: biochemical; details: 10µM
# T37 construct: purchased Reaction Biology Corporation
# MEK1 = target: T38, MEK1 (Homo sapiens, UniProt Q02750); test: HotSpot kinase assay; type: biochemical; details: 10µM
# T38 construct: purchased Reaction Biology Corporation
# ALK3/BMPR1A = target: T39, ALK3/BMPR1A (Homo sapiens, UniProt P36894); test: HotSpot kinase assay; type: biochemical; details: 10µM
# T39 construct: purchased Reaction Biology Corporation
# ZIPK/DAPK3 = target: T40, ZIPK/DAPK3 (Homo sapiens, UniProt O43293); test: HotSpot kinase assay; type: biochemical; details: 10µM
# T40 construct: purchased Reaction Biology Corporation
# MST1/STK4 = target: T41, MST1/STK4 (Homo sapiens, UniProt Q13043); test: HotSpot kinase assay; type: biochemical; details: 10µM
# T41 construct: purchased Reaction Biology Corporation
smiles,measurement,setting,value
CO[C@@H]1[C@H](N(C)C(=O)CCC(=O)NCc2cn(CCCS(=O)(=O)O)nn2)C[C@H]2O[C@]1(C)n1c3ccccc3c3c4c(c5c6ccccc6n2c5c31)C(=O)NC4 [CIMSS],% Enzyme Activity (relative to DMSO controls),KSR2,107.01%
same,% Enzyme Activity (relative to DMSO controls),PDK1/PDPK1,4.20%
same,% Enzyme Activity (relative to DMSO controls),PASK,40.24%
same,% Enzyme Activity (relative to DMSO controls),TESK2,89.59%
same,% Enzyme Activity (relative to DMSO controls),CLK1,3.79%
same,% Enzyme Activity (relative to DMSO controls),SIK2,1.17%
same,% Enzyme Activity (relative to DMSO controls),TIE2/TEK,7.23%
same,% Enzyme Activity (relative to DMSO controls),ROCK1,25.74%
same,% Enzyme Activity (relative to DMSO controls),CAMK2b,2.90%
same,% Enzyme Activity (relative to DMSO controls),RIPK2,40.54%
same,% Enzyme Activity (relative to DMSO controls),RAF1,109.90%
same,% Enzyme Activity (relative to DMSO controls),NIM1,46.56%
same,% Enzyme Activity (relative to DMSO controls),COT1/MAP3K8,103.54%
same,% Enzyme Activity (relative to DMSO controls),PDK4/PDHK4,92.98%
same,% Enzyme Activity (relative to DMSO controls),CK1g3,95.03%
same,% Enzyme Activity (relative to DMSO controls),ERK2/MAPK1,74.09%
same,% Enzyme Activity (relative to DMSO controls),EPHA2,31.99%
same,% Enzyme Activity (relative to DMSO controls),PIM3,2.18%
same,% Enzyme Activity (relative to DMSO controls),AURORA C,2.18%
same,% Enzyme Activity (relative to DMSO controls),MAPKAPK3,85.18%
same,% Enzyme Activity (relative to DMSO controls),ERK5/MAPK7,81.71%
same,% Enzyme Activity (relative to DMSO controls),PKCmu/PRKD1,28.32%
same,% Enzyme Activity (relative to DMSO controls),IRR/INSRR,3.78%
same,viral plaque numbers relative to the DMSO controls,"HSV-2(G); dose 0.1, replicates (Fig 3a source data)",74% and 73.4% and 64% and 57%
same,viral plaque numbers relative to the DMSO controls,"HSV-2(G); dose 1, replicates (Fig 3a source data)",70% and 69% and 45% and 52%
same,viral plaque numbers relative to the DMSO controls,"HSV-2(G); dose 10, replicates (Fig 3a source data)",26.8% and 30.9% and 10% and 14.36%
same,viral plaque numbers relative to the DMSO controls,"HSV-2(G); dose 50, replicates (Fig 3a source data)",30.9% and 30.2% and 14% and 25%
same,% Enzyme Activity (relative to DMSO controls),GRK1,4.55%
same,% Enzyme Activity (relative to DMSO controls),NLK,68.44%
same,% Enzyme Activity (relative to DMSO controls),CDK2/cyclin A,4.94%
same,% Enzyme Activity (relative to DMSO controls),RIPK5,22.32%
same,% Enzyme Activity (relative to DMSO controls),STK22D/TSSK1,2.56%
same,% Enzyme Activity (relative to DMSO controls),ALK,3.76%
same,% Enzyme Activity (relative to DMSO controls),HIPK4,10.40%
same,% Enzyme Activity (relative to DMSO controls),ARAF,152.51%
same,% Enzyme Activity (relative to DMSO controls),EPHB2,27.11%
same,% Enzyme Activity (relative to DMSO controls),ALK2/ACVR1,71.88%
same,% Enzyme Activity (relative to DMSO controls),CLK2,3.10%
same,% Enzyme Activity (relative to DMSO controls),AMPK (A1/B2/G3),1.09%
same,% Enzyme Activity (relative to DMSO controls),FGFR4,4.30%
same,"viability, odu as a percentage of the DMSO control",HaCat cells,114%
same,% Enzyme Activity (relative to DMSO controls),AKT1,23.61%
same,% Enzyme Activity (relative to DMSO controls),MEK1,75.35%
same,% Enzyme Activity (relative to DMSO controls),ALK3/BMPR1A,79.43%
same,% Enzyme Activity (relative to DMSO controls),ZIPK/DAPK3,5.05%
same,% Enzyme Activity (relative to DMSO controls),MST1/STK4,3.39%

# Several values for one entry are separate records, joined by “and”; a condition that tells them apart may be missing. Equal values may be shown once.
